Data on 1 substance can be found in US20150306241A1, “COPOLYMERS FOR THE DELIVERY OF DRUGS INTO CELLS” (published 2015).

The nature of data set [1]: In vitro drug release by dialysis, RP-HPLC. Particulars: dialysis for 24 h at 37° C., 1M sodium salicylate, PTX/methanol/water mixture.
Another data set has as its system A549 cells. Briefly: Apoptosis analysis by FACS, Annexin V/Propidium Iodide double staining. The note with it: A549, 29.5 ng/mL for 72 h. (A flow cytometer gives signals particle by particle.)
Data set [2] is described as follows: In vivo side toxicity assessment. The note with it: 5 mg/Kg PTX twice a week for 4 weeks, end of experiment.

paclitaxel: the “PTX released from the dialysis tube” value in data set [1] was “about 48%”. Further, in the data set with A549 cells, the “necrotic/dead cells (PI positive only)” value came to 17.1%; the “percentage of early apoptotic cells (Annexin positive only)” value was determined as 2.8%; the “percentage of late apoptotic cells (both Annexin and PI positive)” value is 10.4%; the “percentage of viable cells” value is 69.7%. For the same substance, in data set [2], the “white blood cell counts” value was “around 30 % of the HBSS group”.
